Measurements taken from patent US20050119190A1, “Inhibitors of the blood-clotting factor xa, production thereof and use of the same” (priority 2002, published 2005).

Sequences of proteins named here, by UniProt entry; tags and fusion partners are left off. Residues count along the entry.
UniProt P00743, 234-492 limits assumed: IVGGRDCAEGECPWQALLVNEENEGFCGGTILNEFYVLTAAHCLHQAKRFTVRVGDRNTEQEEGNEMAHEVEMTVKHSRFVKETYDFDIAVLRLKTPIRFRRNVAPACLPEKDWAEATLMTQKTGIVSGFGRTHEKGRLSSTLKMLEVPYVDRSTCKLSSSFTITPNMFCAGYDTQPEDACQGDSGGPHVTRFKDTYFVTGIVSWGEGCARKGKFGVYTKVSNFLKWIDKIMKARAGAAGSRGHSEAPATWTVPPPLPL
UniProt P00743, 41-180 partner limits assumed: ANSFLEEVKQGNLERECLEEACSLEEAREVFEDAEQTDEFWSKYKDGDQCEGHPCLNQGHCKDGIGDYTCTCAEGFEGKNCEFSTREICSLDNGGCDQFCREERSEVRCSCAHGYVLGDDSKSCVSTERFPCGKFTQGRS

Biological target: F Xa (bovine) (Bos taurus, UniProt P00743)
Experiment: Inhibition of F Xa, Ki by the method of Dixon, chromogenic substrate Moc-D-Nle-Gly-Arg-pNA
Settings: Example 4; inhibition of factor Xa by inhibitors of formula I; tested form: 2 TFA

pKi: 6.46
SMILES: CC(C)(C)OC[C@@H](NS(=O)(=O)Cc1ccc(CN)cc1)C(=O)NCC(=O)NCc1ccc(C(=N)N)cc1

pKi: −log10 of the molar value.
